Binding of CDR-mutated scFvs to a peptide of the spike HR2 region

Reference: Li et al. 2023, doi:10.1038/s41467-023-39022-2. File: FLAb, binding data.

Target: peptide PDVDLGDISGINAS, taken from heptad repeat 2 (HR2) of SARS-CoV-2 spike.

Parent: Ab-14, a human scFv built as VH, the linker GGGGSGGGGSGGGGS, VL. Only the CDRs of the heavy chain vary.
VH: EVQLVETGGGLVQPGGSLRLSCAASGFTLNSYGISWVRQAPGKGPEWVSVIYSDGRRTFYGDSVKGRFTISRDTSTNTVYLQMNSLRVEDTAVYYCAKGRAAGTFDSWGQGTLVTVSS
VL: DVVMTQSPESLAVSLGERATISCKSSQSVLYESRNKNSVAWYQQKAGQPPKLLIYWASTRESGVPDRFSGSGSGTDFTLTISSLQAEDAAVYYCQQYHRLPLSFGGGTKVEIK

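The starting antibody came from a phage panning campaign against this peptide. Designed CDR sequences, proposed from the first random library and measured here. Group labels follow the data file (Ctrl: baseline library sampled from a position-specific scoring matrix, with some repeated check sequences; Rand: our label for a block that the file lists under HC and that is probably the random mutants of the ten best first-round binders; En: ensemble of fine-tuned language models; GP: Gaussian process model; GPLM: also part of the Gaussian process libraries; HC: hill climbing; Gen: genetic algorithm; Gibbs: Gibbs sampling; a sequence that several methods proposed may carry one label only). The assay is AlphaSeq: two haploid yeast populations carry antibody and antigen on their surface. The frequency of each diploid, read from paired DNA barcodes, reflects how well the two displayed proteins bind. Each replicate has its own calibration line, from reference interactions of the BCL2 family. Each pool was mated in six replicate cultures.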

Each variant is given by its three heavy chain CDRs, as the data file delimits them; those of the parent are GFTLNSYGIS, VIYSDGRRTFYGDSVK, GRAAGTFDS.
Numbers give log10(Kd / nM), so 0 is 1 nM and 3 is 1 µM. Smaller is tighter.
Averages over replicates are reported, and they cover detected replicates only.
"no signal" marks a missing value. The strain was present, yet no cells mated with the target were sequenced in any replicate, which points to weak or no binding.
In the paper, a design with two or fewer of six values counts as a poor binder.
A sequence that the file lists under several names has all its replicates pooled.
A sequence measured in both rounds can read differently, since the two assays cover different ranges.
The parent sequence was in this pool as ten entries: three were never detected, three once, and four in most replicates, with averages from 0.34 to 2.37.
Nonspecific signal, from three strains lacking the peptide, appeared in 1% of pairings of all heavy chain designs, centred on 2.08 (5% of these signals below 0.84); values are not corrected for it. Also given: how often the same scFv was detected with the empty control strains.

| mean log10 Kd (nM) | detected | empty controls | CDR-H1 | CDR-H2 | CDR-H3 | group |
|---|---|---|---|---|---|---|
| no signal | 0/6 | 0/18 | GFDLQEYGIS | VIYADGVRMAYTDSVK | GNWSGRDML | En_Gibbs |
| 2.91 | 1/6 | 0/18 | GFDLNEYGIS | VIYADGRRTFYADSVK | GNQAGTFID | En_HC |
| no signal | 0/6 | 0/18 | GFSLNEYGIS | VIYSDGRRTFYGDSVK | GRTAGTIDS | GP_Gibbs |
| no signal | 0/6 | 1/18 | GYDLMEYGIS | VIYADGRRVYYIDDVK | GHVSGHFLL | En_Gibbs |
| no signal | 0/6 | 0/18 | GFHLNSYGIS | VIYSDGRRTFYQDSVK | GQTAGTFDR | GP_Gibbs |
| 0.42 | 6/6 | 0/18 | GFSLNDYGIS | VIYSDGRRTFYIDSVK | GRAAGTFDS | GPLM_Gen |
| 2.40 | 3/6 | 0/18 | GFDINEMGIS | VIYADGQRLAYAQEVK | GENTGTFGF | En_Gibbs |
| -0.16 | 6/6 | 0/18 | GFDLDEYGIS | VIYADGMRTAYADSVK | GNTAGTFDM | En_Gen |
| 1.96 | 5/6 | 1/18 | GFGLNSYGIS | VIYSDGRRTFYGDSVK | GRLAGTFDS | Ctrl |
| 2.22 | 1/6 | 0/18 | GFTLNSYGIS | VIYSDGRRTFYIDSVK | GRHAGTFDS | GP_HC |
| 1.96 | 1/6 | 0/18 | GFTLNEYGIS | VIYSDGRRTFYGESVK | GRAAGTFDQ | GP_HC |
| -0.42 | 6/6 | 1/18 | GFDLNEYGIS | VIYADGMRTAYSDSVK | GEVAGTFVQ | En_HC |
| -0.53 | 6/6 | 0/18 | GFNLDEYGIS | VIYADGQRTAYADSVK | GNVAGTFDI | En_Gen |
| -0.83 | 6/6 | 0/18 | GFDLNEYGIS | VIYADGIRTAYADSVK | GNVAGTFDQ | En_Gen |
| 1.97 | 2/6 | 1/18 | GFTLNEYGIS | VIYSDGRRTAYGDSVK | GRAAGTFGS | GP_HC |
| no signal | 0/6 | 0/18 | HFTLNEYGIS | VIYSDGRRTFYGDSVK | GRAIGTFDS | Ctrl |
| 0.28 | 6/6 | 0/18 | KFTLNSYGIS | VIYSDGRRTFYADSVK | GRTAGTFDS | GPLM_Gen |
| no signal | 0/6 | 0/18 | GFTLNSYGIS | VIYSDGLRTFYTDSFK | GRARGTFDS | Ctrl |
| no signal | 0/6 | 0/18 | GFSLNDYGIS | VIYSDGRRTFYGDSVK | GRAALTFDG | GPLM_HC |
| no signal | 0/6 | 0/18 | GFTLNSYGIS | VIYLDGRRLFYSDSVK | GRAAGTFDS | Ctrl |
| 1.21 | 5/6 | 1/18 | GFHLNSYGIS | VIYSDGRRTFYGDSVK | GQEAGTFDD | GP_Gibbs |
| 0.06 | 6/6 | 1/18 | GFDLNEYGIS | VIYADGVRTAYSDDVK | GNVAGTFDL | En_Gen |
| 0.20 | 6/6 | 0/18 | GFDLNSYGIS | VIYSDGRRTFYGDGVK | GKAAGTFDV | GP_Gibbs |
| -0.26 | 6/6 | 0/18 | GFDLDEYGIS | VIYADGRRTAYADDVK | GNVAGTFDQ | En_Gen |
| no signal | 0/6 | 0/18 | GTTLKSYGIS | VIYSDGRRTFYGDSVK | GRAAGTFDS | Ctrl |
| no signal | 0/6 | 0/18 | GFTLNSYGIS | VIYSDGRRTAAGDSVK | GRAAGLFDS | Ctrl |
| 0.17 | 5/6 | 0/18 | GFTLNSYGIS | VIYADGRRTFYQDSVK | GRAAHTFDS | Ctrl |
| -0.96 | 6/6 | 0/18 | GFDLNEYGIS | VIYADGMRTAYADSVK | GNVAGTFDI | En_Gen |
| no signal | 0/6 | 0/18 | GFNLDEYGIS | VIYADGIRTVYADQVK | GGLKMHALT | En_Gibbs |
| -0.44 | 6/6 | 0/18 | GFTLNSYGIS | VIYADGRRTFYGDSVK | GQEAGTFDS | GPLM_Gen |
| 2.24 | 6/6 | 3/18 | DFNLNEYGIS | VIYADGVRASVLDKVK | GQISGTFDT | En_Gibbs |
| -0.25 | 6/6 | 0/18 | GFDLNEYGIS | VIYADGLRTAYSDSVK | GNVAGTFDT | En_Gen |
| no signal | 0/6 | 0/18 | GFDLNEFGVS | VIYADGSRASYADKVK | GFNFGQLIV | En_Gibbs |
| 0.51 | 6/6 | 1/18 | KFSLNNYGIS | VIYSDGRRTFYGDSVK | GWTAGTFDS | GP_Gibbs |
| 0.50 | 6/6 | 0/18 | KFSLNSYGIS | VIYADGRRTFYGDSVK | GNAAGTFDS | GP_Gen |
| -0.61 | 6/6 | 1/18 | GFDLDEYGIS | VIYADGKRTAYADSVK | GNEAGTFDQ | En_Gen |
| -0.96 | 6/6 | 1/18 | GFDLNEYGIS | VIYADGMRTAYADSVK | GNLAGTFDV | En_Gen |
| 0.61 | 6/6 | 3/18 | GFGLNDYGIS | VIYSDGRRTFYGDSVK | GRQAGTFDS | GPLM_Gibbs |
| no signal | 0/6 | 1/18 | GENLEEYGIS | VIYADGMREQYSDSVK | GRQGGFFVV | En_Gibbs |
| no signal | 0/6 | 0/18 | GFSLNNYGIS | VIYSDGRRTFYVDSVK | GQTAGTFDS | GP_Gibbs |
| 0.77 | 6/6 | 0/18 | GFTLKSYGIS | VIYADGRRTFYGDSVK | GRTAGTFDS | GPLM_Gen |
| 0.57 | 6/6 | 0/18 | GFPLNEYGIS | VIYADGRRTFYGDSVK | GQAAGTFDS | GP_HC |
| 0.81 | 6/6 | 0/18 | GFKLNSYGIS | VIYSDGRRTFYSDSVK | GTAAGTFDS | GP_HC |
| 0.23 | 6/6 | 0/18 | GFSLNSYGIS | VIYSDGRRTFYHDSVK | GNAAGTFDS | GPLM_Gen |
| -0.46 | 6/6 | 0/18 | GFDLNEYGIS | VIYADGSRTFYTDSVK | GEVAGTFDS | En_HC |
| 0.73 | 6/6 | 0/18 | GFTLNSYGIS | VIYSDGKRTFYIDSVK | GNAAGTFDS | GPLM_Gen |
| 2.28 | 4/6 | 0/18 | GFTLNRYGIS | VIYSDGRRTFYTDSVK | GMFAGTFDS | Rand |
| -0.01 | 12/12 | 2/36 | GFDLNSYGIS | VIYSDGRRTFYTDSVK | GEAAGTFDS | Ctrl+GPLM_Gibbs |
| no signal | 0/6 | 0/18 | GFTLNSYGTS | VIYADGRRTFYGDSVK | GRANGTNKS | Rand |
| 0.95 | 6/6 | 0/18 | GFSLNEYGIS | VIYSDGRRTFYGDSVK | GRAAGTFDF | GPLM_Gen |
| no signal | 0/6 | 0/18 | GFQLNEYGIS | VIYADGMRSEYQDSVK | GSNSSSFKV | En_Gibbs |
| 0.98 | 6/6 | 0/18 | GFDLNDYGIS | VIYADGMRTQYIDSVK | GENAGTFDL | En_HC |
| no signal | 0/6 | 0/18 | GFTLQSYGIS | VIYADGRRTFYGDDVK | GRAAGTNKS | Rand |
| 0.68 | 6/6 | 0/18 | GFSLESYGIS | VIYSDGRRTFYGDSVK | GRAAGTFDS | GPLM_Gen |
| 0.39 | 6/6 | 0/18 | GFDLNEYGIS | VIYSDGRRTFYADSVK | GKAAGTFDS | GPLM_Gen |
| -0.33 | 6/6 | 1/18 | GFDLNEYGIS | VIYADGMRTHYADSVK | GNEAGTFDS | En_HC |
| no signal | 0/6 | 1/18 | GQTVNSYGIS | VIYSDGRRTFYGDDVK | GRAAGTFDS | Ctrl |
| 0.79 | 6/6 | 0/18 | GFCLNEYGIS | VIYADGRRTFYGDSVK | GRAAGTFDS | Ctrl |
| no signal | 0/6 | 0/18 | RFNLNKYGIS | VIYSDGRVTGYGDSVK | GGNYGTFDS | Ctrl |
| no signal | 0/6 | 0/18 | GFDLDEYGIS | VIYADGRRTAYADSVK | GTNAGTFDM | En_HC |
| 0.63 | 1/6 | 0/18 | GFTLNSYGIS | VIYSDGRRTFYGDSVK | GKAAGTFDV | Ctrl |
| 3.49 | 2/6 | 2/18 | GFTLNEYGIS | VIYSDGRRTFYGDSVK | ARAAGTFDS | Ctrl |
| no signal | 0/6 | 0/18 | GFDLEEYGIS | VIYADGRRVSYSQSVK | GVYSGTHYV | En_Gibbs |
| -0.48 | 6/6 | 0/18 | GFDLNEYGIS | VIYADGRRTAYDDSVK | GEAAGTFDM | En_HC |
| 1.78 | 1/6 | 0/18 | GFDLDEEGIS | VIYADGQRTAYSQQVK | GNFDGKVMD | En_Gibbs |
| 1.10 | 4/6 | 0/18 | GFTLNDYGIS | VIYSDGRRTFYGDSVK | GEAAATFDS | Ctrl |
| 0.38 | 6/6 | 2/18 | GFTLNSYGIS | VIYSDGRRTFYGDNVK | GRVAGTFDS | Ctrl |
| -0.26 | 6/6 | 0/18 | GFDLDEYGIS | VIYADGMRTAYTDSVK | GNTAGTFDQ | En_Gen |
| no signal | 0/6 | 0/18 | GFQLDEFGIS | VIYADGKRSSYVDDVK | GEVTGGFKV | En_Gibbs |
| no signal | 0/6 | 0/18 | SFTLNSYGIS | VIYSDGRRTFYDDSVK | GQLAGTFDS | GPLM_HC |
| 0.64 | 6/6 | 1/18 | GFTLNSYGVS | VIYSDGRRTFYIDSVK | GTTAGTFDS | Ctrl |
| 1.20 | 6/6 | 0/18 | GFNLNSYGIS | VIYSDGRRTFYVDSVK | GQLAGTFDS | GP_HC |
| 0.44 | 6/6 | 0/18 | GFDLNSYGIS | VIYSDGRRTFYKDQVK | GQTAGTFDS | GP_Gen |
| -0.29 | 6/6 | 0/18 | GFDLNEYGIS | VIYADGRRTAYSDDVK | GENAGTFDV | En_Gen |

Extract of 4 entries:

CDR-H1	CDR-H2	CDR-H3	group	mean log10 Kd (nM)	detected	empty controls
GFSLNEYGIS	VIYSDGRRTFYGDSVK	GRTAGTIDS	GP_Gibbs	no signal	0/6	0/18
GFDLNEYGIS	VIYADGMRTHYADSVK	GNEAGTFDS	En_HC	-0.33	6/6	1/18
GFTLQSYGIS	VIYADGRRTFYGDDVK	GRAAGTNKS	Rand	no signal	0/6	0/18
GFTLNSYGIS	VIYSDGKRTFYIDSVK	GNAAGTFDS	GPLM_Gen	0.73	6/6	0/18